Among the data in PubChem BioAssay AID588819 (The Scripps Research Institute Molecular Screening Center, 2011) are activation values, retold here.

The chains behind the UniProt entries cited, without tags or fusion partners.
UniProt P11229, whole entry: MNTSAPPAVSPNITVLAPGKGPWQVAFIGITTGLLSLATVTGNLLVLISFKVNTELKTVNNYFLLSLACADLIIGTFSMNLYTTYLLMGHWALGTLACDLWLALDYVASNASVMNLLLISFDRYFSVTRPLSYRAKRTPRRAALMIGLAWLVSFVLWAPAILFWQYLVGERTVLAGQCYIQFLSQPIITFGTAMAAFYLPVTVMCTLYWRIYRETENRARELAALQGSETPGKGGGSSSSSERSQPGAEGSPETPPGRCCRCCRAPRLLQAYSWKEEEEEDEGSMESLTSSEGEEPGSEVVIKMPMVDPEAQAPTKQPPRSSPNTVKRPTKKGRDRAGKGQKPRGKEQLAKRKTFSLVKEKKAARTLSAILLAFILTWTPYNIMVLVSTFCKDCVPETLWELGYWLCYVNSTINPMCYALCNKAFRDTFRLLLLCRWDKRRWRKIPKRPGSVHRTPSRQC

The entries are a selection whose mix differs from that of the whole data set. Some results for these compounds are left out of this collection, so the calls shown say nothing about other tests. Activity calls are given as the source filed them. Cut-off read from the data, not from the text of the source: active = activation above about 19% (passing the limit was not always enough); inactive = the rest.

The target in this experiment is Muscarinic acetylcholine receptor M1 (Homo sapiens) (UniProt P11229). Put plainly: human M1 muscarinic receptor positive allosteric modulators, primary screen, CHO-K1 cells, Fluo-8 calcium fluorescence, 1536-well (AID 588819). Conditions: CHO-K1 hM1, Fluo-8 calcium fluorescence, ACh EC20; at 3 µM; active compounds read high; 0% = ACh EC20, 100% = maximal ACh.
For the compound `CN(C)c1cccc(C(=O)NCC2(N(C)C)CCCCC2)c1`, the activation is inactive: 2.43%.
The same measure for `CC(C)Oc1ccc(C(=O)NCC2(N(C)C)CCCCC2)cc1`: inactive: 1.2%.
To `O=C(OCCN1CCCC1)C(O)(c1ccccc1)c1ccccc1` belongs inactive: -30.1%; to `COc1ccc(Br)c(C(=O)NCC2(N3CCCCC3)CCCCC2)c1`, inactive: 2.58%; to `C=C(C)C#CC(O)(C(=O)OC1CCN(C)CC1)c1ccccc1` (stereo not drawn), inactive: -29.7%.
For `O=C(OC1CN2CCC1CC2)C(CO)(c1ccccc1)c1ccccc1` (stereo not drawn), the activation is inactive: -22.6%.
The same measure for `O=C(NCC1(N2CCCCC2)CCCCC1)c1cccc(Cl)c1`: inactive: 19.1%; for `COc1cccc(C(=O)NCC2(N3CCCCC3)CCCCC2)c1`: inactive: 6.61%; for `COc1ccc(Cl)cc1C(=O)NCC1(N(C)C)CCCCC1`: inactive: -3.09%.
`COc1cc(C(=O)NCC2(N(C)C)CCCCC2)c([N+](=O)[O-])cc1OC`: the activation is inactive: 14.7%.
On to `CN(C)C1(CNC(=O)c2ccc(Br)cc2)CCCCC1`, for which the activation was inactive: 6.27%.
With `Cc1cc(C(=O)NCC2(N3CCCCC3)CCCCC2)ccc1[N+](=O)[O-]`, the activation is inactive: 7.26%.
In the case of `O=C(NCC1(N2CCCCC2)CCCCC1)c1cccc(Br)c1`, the activation is inactive: 12.1%.
For the compound `COc1ccc(C(=O)NCC2(N(C)C)CCCCC2)cc1`, the activation is inactive: 2.76%.
As for `C=CCN1CCN(CCOC(=O)C(O)(c2ccccc2)c2ccccc2)CC1`, the activation was inactive: -38.1%.
Consider `O=C(NCC1(N2CCCCC2)CCCCC1)c1cc(F)c(F)cc1Cl`, for which the activation is inactive: -2.89%.
Consider `Cc1ccccc1C(=O)NCC1(N2CCCCC2)CCCCC1`, for which the activation is inactive: 8.87%.
The same measure for `CN(C)c1ccc(C(=O)NCC2(N(C)C)CCCCC2)cc1`: inactive: 11.9%.
`Cc1ccc(C(=O)NCC2(N3CCCCC3)CCCCC2)cc1`: the activation is inactive: 7.5%.
Turning to `CC(C)N1C(=O)CC2(CCN(CCOC(=O)C(O)(c3ccccc3)c3ccccc3)CC2)C1=O`, the activation is inactive: 1.87%.
Take `CCN(CC)CC(C)C(C)OC(=O)C(O)(c1ccccc1)c1ccccc1` (stereo not drawn): the activation was inactive: -21.4%.
To `COc1cc(SC)ccc1C(=O)NCC1(N(C)C)CCCCC1` belongs inactive: 11.6%; to `O=C(NCC1(N2CCCCC2)CCCCC1)c1cc([N+](=O)[O-])ccc1Cl`, inactive: -0.67%.
